Assay results from patent publication US12280125B2, “Method for delivering insulin” (Imam Abdulrahman Bin Faisal University, priority 2022, dated 2025).

System: Human foreskin fibroblast (HFF-1) cells
Test: MTT cell viability (toxicity study)
Conditions: in comparison to DMEM-treated cells (100%)

insulin
Cell growth (cell viability): 130%
